Test results from patent publication US20080200533A1, “Drug or Pharmaceutical Compounds and a Preparation Thereof” (priority 2005, published 2008).

Experiments:
[1] = Solubility in water and in lactic acid
Solubility in oils = settings: arachis oil, sunflower oil, soybean oil etc.

Row | Substance | solubility in lactic acid ([1]; lactic acid) | solubility in water ([1]; water) | solubility in oils (in words) (Solubility in oils)
1 | Atorvastatin (S)-2,6-diaminohexanoic acid betaine | 1 gm in 5 ml of lactic acid | 100 mg in 100 ml of water | –
2 | atorvastatin (S)-2,6-diaminohexanoic acid (Z)-9-Octadecenoic complex | – | – | freely soluble in oils
